# Antibody variant affinities, Ab-14 light chain, assay 1

Data: MIT Lincoln Laboratory AlphaSeq set, Engelhart et al. 2022, doi:10.1038/s41597-022-01779-4, as distributed in FLAb.

The target is the same throughout: PDVDLGDISGINAS, from the HR2 region of SARS-CoV-2 spike.

Parent: Ab-14, a human scFv built as VH, the linker GGGGSGGGGSGGGGS, VL. Only the CDRs of the light chain vary.
VH: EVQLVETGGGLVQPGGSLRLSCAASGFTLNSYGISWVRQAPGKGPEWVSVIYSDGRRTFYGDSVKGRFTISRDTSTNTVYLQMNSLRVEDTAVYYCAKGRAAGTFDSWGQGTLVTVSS
VL: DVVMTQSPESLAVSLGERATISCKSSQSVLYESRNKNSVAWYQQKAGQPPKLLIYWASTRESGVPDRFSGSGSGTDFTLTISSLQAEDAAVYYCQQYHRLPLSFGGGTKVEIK

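The library (AAYL50) carries one to three amino acid substitutions per variant, with no insertions or deletions. The scFvs were displayed on barcoded MATa yeast, the peptide on MATalpha yeast. Mating (16 h, 30 °C) was followed by selection of diploids and sequencing of their barcodes. Scores were corrected for input abundance and mapped to Kd with protein pairs of known affinity run in the same pool. Each pool was mated in three replicate cultures.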

The parent's light chain CDRs are KSSQSVLYESRNKNSVA, WASTRES, QQYHRLPLS; each variant's own CDRs replace them letter for letter.
Affinities are written as log10 Kd with Kd in nM; a lower number is a better binder.
A pair that was not seen in that replicate is written "nd"; this usually means weak binding, but a binder can also be missed.
For reference, the parent read 0.65 as the reference entry and 1.68 as a member of this library.

CDR-L1,CDR-L2,CDR-L3,"replicates, log10 nM",signal with controls
KSSQSVLYESRNKNIVA,WASTREY,QQYHRLPLS,3.79 / nd / nd,0/9
KSSQIVLWESRNLNSVA,WASTRES,QQYHRLPLS,1.46 / 1.49 / 1.50,2/9 (4.97)
KSSQKVLYMSRNKNSVA,WASTRNS,QQYHRLPLS,2.59 / 2.47 / 2.55,6/9 (5.29)
KSFQSVLYESRNKNSCA,WASTRES,QQYQRLPLS,nd / 3.74 / nd,0/9
KSHQEVLYESRNKNSVA,WVSTRES,QQYHRLPLS,nd / 4.49 / 4.30,5/9 (4.71)
KSIQSVLYESRNKNSIA,WASTRES,QQYMRLPLS,0.88 / 0.82 / 0.97,1/9 (3.01)
KSSQSVLYESRMKNSVA,WASTKES,QQYHRLPLW,1.40 / 1.70 / 1.56,4/9 (4.41)
KSSQSVLYESRNSNSVA,WASTRES,QGYHCLPLS,nd / nd / nd,0/9
KVSQSVAYESRNKNSVA,WAITRES,QQYHRLPLS,0.70 / 0.88 / 0.78,1/9 (3.62)
NYSQSVLYESQNKNSVA,WASTRES,QQYHRLPLS,nd / nd / 4.86,3/9 (4.67)
KSSQSVLYESRNKNSVA,WASEYES,QQYHRLPLS,2.93 / 2.34 / 2.92,0/9
KSSSSVLYESRGKNSVA,WASTRES,PQYHRLPLS,nd / nd / 3.26,2/9 (4.21)
KSSYSVLYISRNKNSVA,WASTREV,QQYHRLPLS,4.36 / 3.07 / 2.74,3/9 (3.51)
KSSQKVLYESRNKNVVA,WASTRES,QQYHRLPTS,nd / 4.03 / 4.75,4/9 (4.50)
KSSQMVLYESRNKNSVA,QASTRES,EQYHRLPLS,-0.20 / 0.28 / 0.03,0/9
VSSQSVLYESRNKNSVA,WASTRVS,QQYFRLPLS,0.60 / 0.81 / 0.69,2/9 (3.74)
KSSQSMLYESRNKNSVA,YASTRES,QQYHRLPLS,0.07 / 0.38 / 0.10,2/9 (4.09)
KCSQSVLYESRNKNSFA,WASTRES,QQYQRLPLS,1.90 / 2.11 / 2.05,0/9
KSSQSVLYESRNKHSVA,WYSTRES,QQYRRLPLS,nd / nd / nd,0/9
KSSQSVLYESRRGNSVA,WASTIES,QQYHRLPLS,3.95 / nd / nd,0/9
KSNQSVLYEHRNKNSVA,WASTRHS,QQYHRLPLS,2.00 / 2.05 / 2.94,1/9 (2.88)
KSSQSVLYESRNKNSVK,WASTRES,RQYHRCPLS,nd / 4.78 / 3.19,4/9 (4.21)
KSSQSVLYESRNKNSVT,WASCRES,FQYHRLPLS,nd / nd / nd,0/9
KSSQSSLYESRNKNSVA,MASTRES,QQYQRLPLS,nd / nd / nd,0/9
KSSQPVLYESNNKNSVY,WASTRES,QQYHRLPLS,nd / nd / nd,1/9 (4.08)
KSSQAVLYESRNKNSVA,WASTRES,QQYHRLYLS,nd / nd / nd,0/9
KSSYSVLYHSRNKNSVA,WASTRES,QQYHRLPLS,1.19 / 1.49 / 1.30,1/9 (4.88)
KSSQSVLYECRNKNSRA,WASTRES,QQYHREPLS,nd / nd / nd,0/9
KLSQSVLYESRNKNSVA,NASTRES,DQYHRLPLS,-0.02 / -0.02 / -0.20,1/9 (2.56)
KSKQSVLYESRNKESIA,WASTRES,QQYHRLPLS,0.81 / 1.43 / 1.07,3/9 (3.34)
KSMQSVLYESRNKNYVA,WASTRES,QSYHRLPLS,3.81 / 3.46 / 4.44,5/9 (4.27)
KSSQSVLYESRNKNSVA,LASTRMS,QQYHRLPLS,0.73 / 0.94 / 0.90,3/9 (4.70)
KISQSVLYESRNKNSVL,WASTRES,QQYHRLPLS,nd / 3.67 / nd,2/9 (3.92)
KSSQYVLYESRNKNSVA,WASTRES,QQYHRLPRS,nd / nd / nd,0/9
KSSQSVLIESRNKNSVA,WAKTRES,QQAHRLPLS,nd / nd / nd,0/9
RSSQSVLYESRNKNSVQ,WISTRES,QQYHRLPLS,nd / 3.38 / nd,1/9 (4.32)
KKSQSVLYESRNKNSVA,WASTRES,EQYHRLPLS,2.00 / 2.06 / 2.83,1/9 (3.19)
KSSQSTLYESRNKNSVA,WSSTRES,QQYHRLPLK,1.29 / 1.59 / 2.09,1/9 (2.59)
KSSQSVLYESGNKNSVA,WASTRES,QQYHRLPQH,nd / 3.90 / nd,2/9 (4.03)
KSSQDVLYESRNKNSEA,WASTRES,QQEHRLPLS,nd / nd / nd,1/9 (4.27)

Background: pairings of library AAYL50 with three empty control strains gave a value in 18% of cases (median 4.19, 5th percentile 2.99). Values in that range, when seen in few replicates, are hard to tell from nonspecific mating. Also given: how often the same scFv was detected with the empty control strains, with their mean in brackets.